Drawing on ChEMBL document CHEMBL3871289, “Design, synthesis and antithrombotic evaluation of novel non-peptide thrombin inhibitors” (Bioorg Med Chem, 2017), this text covers IC50 for one molecule.

pIC50: −log10 of the molar value.

In the experiment the target is Prothrombin (Homo sapiens, UniProt P00734). Put plainly: Inhibition of human thrombin assessed as reduction in release of free nitroaniline using tosyl-glycyl-prolyl-arginine-4-nitranilide acetate as substrate preincubated for 10 mins followed by substrate addition by spectrophotometer.

As a reminder, the pIC50 is −log10 of the IC50, conventionally taken in molar units. In the case of `CC1CNc2c(cccc2S(=O)(=O)N[C@@H](CCCNC(=N)N)C(=O)N2CC[C@@H](C)C[C@@H]2C(=O)O)C1` (stereo partly specified) [ARGATROBAN], the pIC50 was 7.81 to 7.93.
